Source: ChEMBL document CHEMBL1201862, “PubChem BioAssay data set” (2004)
The list shows a part of the results. No stated cut-off is given here; in the data, active = GI50 up to about 1.1 µM and inactive = higher. These assays gave more results; the selection is not random.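 Grown in 96-well plates, cells were treated for 48 hours with each compound at five concentrations. Insufficient inhibition: endpoint recorded as highest concentration tested. GI50 marks 50% less growth.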 For part of these data: Measured potencies and affinities stand elsewhere.

What follows are compounds tested on SK-MEL-2 (assay: NCI tumour cell line growth inhibition, 48 h).
For CCN(CCO)CCO.Oc1c(Cl)c(Cl)c(Cl)c(Cl)c1Cl, the GI50 was inactive: 20.4 µM. N1=C(c2nnn[nH]2)NNC(c2nnn[nH]2)=N1 was tested, and the GI50 was inactive: > 100 µM. In the case of CC1=C[C@H]2O[C@@H]3[C@H](O)[C@@H](O)[C@](C)([C@@]2(O)CC1)[C@]31CO1, the GI50 is reported as active: 0.845 µM.

The compounds below were run on SK-MEL-5 (assay: NCI tumour cell line growth inhibition, 48 h).
CCN(CCO)CCO.Oc1c(Cl)c(Cl)c(Cl)c(Cl)c1Cl was tested, and the GI50 was inactive: 13.7 µM. For N1=C(c2nnn[nH]2)NNC(c2nnn[nH]2)=N1, the GI50 was inactive: > 100 µM. With CC1=C[C@H]2O[C@@H]3[C@H](O)[C@@H](O)[C@](C)([C@@]2(O)CC1)[C@]31CO1 the GI50 was active: 0.107 µM.

The compounds below were run on SK-OV-3 (assay: NCI tumour cell line growth inhibition, 48 h).
CCN(CCO)CCO.Oc1c(Cl)c(Cl)c(Cl)c(Cl)c1Cl was tested, and the GI50 was inactive: 26.3 µM. With N1=C(c2nnn[nH]2)NNC(c2nnn[nH]2)=N1 the GI50 was inactive: > 100 µM. CC1=C[C@H]2O[C@@H]3[C@H](O)[C@@H](O)[C@](C)([C@@]2(O)CC1)[C@]31CO1 was tested, and the GI50 was active: 0.279 µM.
